The values below are quoted from earlier work in patent publication US12458587B2, “Hypoallergenic composition for skin regeneration or skin soothing, containing culture product or extract of Aureobasidium pullulans strain” (AMOREPACIFIC CORPORATION, priority 2018, dated 2025).

Where two headings read alike, the source gives them in different places.

This series concerns chorioallantoic membrane (CAM). As to conditions: application period of 5 minutes, cited from earlier work.

Consider “sodium magnesium lauryl-myristyl-6-ethoxy-sulfate [Texapon Asv®]”, for which the “degree of stimulation (vascular response of CAM)” value by setting is: (0.5%) “weak hemorrhage and lysis”; (1.0%) “moderate hemorrhage and lysis”; (5.0%) “strong hemorrhage and lysis”.
